The values below are quoted from earlier work in patent publication US20140301952A1, “MEASUREMENT OF BODY FLUID VOLUMES” (PHARMACOPHOTONICS, INC. D/B/A FAST DIAGNOSTICS, priority 2009, published 2014).

Like-named read-outs stand apart in the source and are kept apart here.

“albumin: common indicator molecule for the dilution technique, used labeled with I125/I131 or ICG”: the “rate of leak into the interstitial space” value (patients with septic shock) is 15 % per hour and the “rate of leak into the interstitial space” value (physiologic conditions) is “about 5 % per hour”.
